## Binding of CDR-mutated scFvs to a peptide of the spike HR2 region

Source: Li et al. 2023 (doi:10.1038/s41467-023-39022-2), MIT Lincoln Laboratory and A-Alpha Bio; data file from the FLAb repository.

The target is the same throughout: PDVDLGDISGINAS, from the HR2 region of SARS-CoV-2 spike.

The variants keep the light chain, the linker and the frameworks of Ab-14 (scFv order VH, three GGGGS repeats, VL).
VH: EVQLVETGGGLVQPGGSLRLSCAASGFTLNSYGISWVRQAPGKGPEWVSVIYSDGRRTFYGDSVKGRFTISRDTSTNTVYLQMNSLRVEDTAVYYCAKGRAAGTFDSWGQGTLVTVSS
VL: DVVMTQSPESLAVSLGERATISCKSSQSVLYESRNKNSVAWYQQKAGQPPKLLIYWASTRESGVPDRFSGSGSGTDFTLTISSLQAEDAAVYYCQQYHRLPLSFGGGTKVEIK

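Phage display of a naive human antibody library on the peptide gave the parent. The variants were designed computationally from a first round of random CDR variants and then made and measured. Their group label is 14H_En_Gibbs (En: ensemble of fine-tuned language models; Gibbs: Gibbs sampling). In AlphaSeq, yeast of one mating type display the scFv and yeast of the other type display the target. After mating in shaken culture at 30 °C for 16 h, diploids were selected and their barcode pairs sequenced. Scores were corrected for input abundance and mapped to Kd with protein pairs of known affinity run in the same pool. The assay was run in six technical replicates.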

Variants are written as CDR1, CDR2 and CDR3 of the heavy chain (limits as in the source). Parent: GFTLNSYGIS, VIYSDGRRTFYGDSVK, GRAAGTFDS. Values are log10 of the apparent Kd in nM; lower means stronger binding. A pair that was not seen in that replicate is written "n.d."; this usually means weak binding, but a binder can also be missed. The range of this assay differs from that of the first round, and the authors advise against merging the two.

| # | CDR-H1 | CDR-H2 | CDR-H3 | replicates, log10 nM | control signals |
|---|---|---|---|---|---|
| 1 | GFDIDEQGIS | VIYADGQRKAYTDNVK | GNSMGMTVA | n.d. n.d. n.d. n.d. n.d. n.d. | 0/18 |
| 2 | GFDLKEYGIS | VIYADGSRTAYSKNVK | GEFDDMVLV | n.d. n.d. n.d. n.d. n.d. n.d. | 0/18 |
| 3 | GFDFQEYGIS | VIYADGLRTNAADNVK | GNIGATFDD | n.d. n.d. n.d. 1.34 n.d. n.d. | 0/18 |
| 4 | GFGLDEFGIS | VIYADGLRSSYVDDVK | GELTGGFIV | n.d. n.d. n.d. n.d. n.d. n.d. | 0/18 |
| 5 | GFDMEEFGIS | VIYADGQRLAYADEVK | GENAGSFDI | 0.01 0.51 0.93 n.d. 0.61 0.35 | 0/18 |
| 6 | GVDIDEYGIS | VIYADGIRQFYQDKVK | GNVGGMFDT | 0.91 0.79 0.85 0.66 0.90 0.65 | 1/18 (2.23) |
| 7 | GFDLGEYGVS | VIYADGHRAAYSDNVK | GAESGSVQT | n.d. 3.75 n.d. n.d. n.d. n.d. | 0/18 |
| 8 | GFDIEEMGIS | VIYADGQRLFYADEVK | GENAGSFDM | n.d. n.d. n.d. n.d. 2.03 n.d. | 0/18 |
| 9 | GFGLGEYGIS | VIYADGTRTAYVTKVK | GHIAGMFFT | n.d. n.d. n.d. n.d. n.d. n.d. | 0/18 |
| 10 | GFSIDEYGIS | VIYADGARASYAPKVK | GQQAGDLIE | n.d. n.d. n.d. n.d. n.d. n.d. | 0/18 |
| 11 | GESLDEYGIS | VIYADGQRVQYSNNVK | GLMFGVFDM | n.d. n.d. n.d. n.d. n.d. n.d. | 0/18 |
| 12 | AFNLEDYGIS | VIYADGHRASYVESVK | GGLAGTFVL | n.d. n.d. n.d. n.d. n.d. n.d. | 0/18 |
| 13 | GFDINEYGVS | VIYADGMRSYYADKVK | GSLGALFDV | n.d. n.d. n.d. n.d. n.d. n.d. | 0/18 |
| 14 | GFDVDEYGIS | VIYADGKRSMYANKVK | GHIGGMMFV | n.d. n.d. n.d. n.d. n.d. n.d. | 0/18 |
| 15 | GFELEEYGIS | VIYADGQRTFYADNVK | GDVDTVVHY | n.d. n.d. n.d. 1.82 n.d. n.d. | 0/18 |
| 16 | GFDIEEYGIS | VIYADGRRKAYADSVK | GIDVYGKTV | -0.08 -0.68 -0.31 -0.41 -0.60 -0.12 | 0/18 |
| 17 | GEVLDEYGIS | VIYADGQRVQYSDNVK | GLLFGVFDM | n.d. n.d. n.d. n.d. n.d. n.d. | 4/18 (3.26) |
| 18 | GFNLDEYGIS | VIYADGVRKAYSSKVK | GKVWWFFLM | n.d. n.d. n.d. n.d. n.d. n.d. | 1/18 (2.32) |
| 19 | GFNIDEYGIS | VIYADGMRTAYSNAVK | GIVNGDTFS | n.d. n.d. 2.44 n.d. n.d. n.d. | 0/18 |
| 20 | GFSFNEYGIS | VIYADGKRQAYANNVK | GGKDAAFDI | n.d. n.d. n.d. n.d. n.d. n.d. | 0/18 |
| 21 | GFLLDDYGIS | VIYADGLRKAYVDEVK | GYVAGTFDE | 0.76 0.39 0.51 1.90 n.d. 0.93 | 0/18 |
| 22 | GFDLDEYGIS | VIYADGVRTAYQDDVK | GQEAGFLYT | n.d. n.d. n.d. n.d. n.d. n.d. | 1/18 (1.31) |
| 23 | GFDLEEMGVS | VIYHDGIRTAYHQKVK | GQAAGTFDL | n.d. n.d. n.d. n.d. n.d. n.d. | 0/18 |
| 24 | GFDLKQYGIS | VIYADGRRTAYDNDVK | GQVAGIFLD | 1.51 1.63 0.72 1.38 1.47 n.d. | 0/18 |
| 25 | GKSLDEYGIS | VIYADGLRKVYADSVK | GQFDDAMDL | n.d. n.d. n.d. n.d. n.d. n.d. | 0/18 |
| 26 | GFQIEEYGIS | VIYADGSRTEYTDSVK | GKYIFNLDV | n.d. n.d. n.d. n.d. n.d. n.d. | 2/18 (2.91) |
| 27 | GFDLNEYGIS | VIYADGMRRAYAQNFK | GVTGGGLGI | n.d. n.d. n.d. n.d. n.d. n.d. | 0/18 |
| 28 | GFELDEYGIS | VIYADGARTGYVDNVK | GEAGGDFHV | n.d. n.d. n.d. n.d. 2.41 n.d. | 1/18 (3.17) |
| 29 | GFNLDEYGIS | VIYADGYRTMYADDVK | GMNSGFGGT | n.d. n.d. n.d. n.d. n.d. n.d. | 0/18 |
| 30 | GFDINEYGVS | VIYADGMRAFYTDSVK | GKGAGIALE | n.d. n.d. n.d. n.d. n.d. n.d. | 0/18 |
| 31 | GFDIGEYGIS | VIYADGRRKAYSDAVK | GIHVYGKTV | n.d. n.d. n.d. n.d. n.d. n.d. | 0/18 |
| 32 | GEDLGEYGIS | VIYADGVRASYIDSVK | GESTGFLDV | n.d. n.d. n.d. n.d. n.d. n.d. | 0/18 |
| 33 | GFSLDEYGIS | VIYADGQRSAYSENVK | GQHGGMTVS | n.d. n.d. n.d. n.d. n.d. 3.07 | 0/18 |
| 34 | GFKLEEYGIS | VIYADGLRVFYADSVK | GGFDGYKFI | n.d. n.d. n.d. n.d. n.d. n.d. | 0/18 |
| 35 | GFDLDEYGIS | VIYADGMRVSYDQNVK | GHGGGSFVF | n.d. n.d. n.d. n.d. n.d. n.d. | 1/18 (1.20) |
| 36 | GFKIEEYGIS | VIYADGVRMMYASNFK | GKIAGTFNL | 0.18 1.07 0.55 0.80 1.27 1.70 | 0/18 |
| 37 | GFNLKEYGIS | VIYADGVRAQYAESVK | GIYSSKFGM | 0.99 0.51 0.49 0.24 1.06 0.66 | 0/18 |
| 38 | GFDLQEYGIS | VIYADGKRTKVTDNVK | GTLTGTAVT | n.d. n.d. n.d. n.d. n.d. n.d. | 0/18 |
| 39 | GFDLAEYGVS | VIYADGKRTAYADHVK | GENGGFFDL | n.d. n.d. n.d. n.d. n.d. n.d. | 0/18 |
| 40 | GQSLDDYGIS | VIYADGQRKAAADEVK | GENAGTFDI | n.d. n.d. n.d. n.d. n.d. n.d. | 0/18 |
| 41 | GMDLNEYGIS | VIYADGLRTAYIDEVK | GKGSVIVGH | n.d. n.d. n.d. n.d. n.d. n.d. | 0/18 |
| 42 | GDSLAEYGIS | VIYADGMRSKYSDSFK | GQVAGYFGV | n.d. n.d. n.d. n.d. n.d. n.d. | 0/18 |
| 43 | GFDLQELGIS | VIYADGTREAYSEKVK | GQLAGYFVF | n.d. n.d. n.d. n.d. n.d. n.d. | 0/18 |
| 44 | GKDLEEYGIS | VIYADGHRAAYADSVK | GINMDVMTV | n.d. n.d. n.d. 3.90 n.d. n.d. | 0/18 |
| 45 | GQDLEEFGIS | VIYADGMRAAYADNVK | GVKVGGVTI | n.d. n.d. n.d. n.d. n.d. n.d. | 0/18 |
| 46 | GFDLEKYGIS | VIYADGSRSAYAQDVK | GGHAGGFHV | n.d. n.d. n.d. n.d. n.d. n.d. | 0/18 |
| 47 | KFDLEAYGIS | VIYADGVRTNYVDKVK | GDTGGMFDM | n.d. n.d. n.d. n.d. n.d. n.d. | 0/18 |

Repeated from above, the 4 best binders with a signal in all replicates:

{"CDR-H1": "GFDIEEYGIS", "CDR-H2": "VIYADGRRKAYADSVK", "CDR-H3": "GIDVYGKTV", "replicates, log10 nM": "-0.08 -0.68 -0.31 -0.41 -0.60 -0.12", "control signals": "0/18"}
{"CDR-H1": "GFNLKEYGIS", "CDR-H2": "VIYADGVRAQYAESVK", "CDR-H3": "GIYSSKFGM", "replicates, log10 nM": "0.99 0.51 0.49 0.24 1.06 0.66", "control signals": "0/18"}
{"CDR-H1": "GVDIDEYGIS", "CDR-H2": "VIYADGIRQFYQDKVK", "CDR-H3": "GNVGGMFDT", "replicates, log10 nM": "0.91 0.79 0.85 0.66 0.90 0.65", "control signals": "1/18 (2.23)"}
{"CDR-H1": "GFKIEEYGIS", "CDR-H2": "VIYADGVRMMYASNFK", "CDR-H3": "GKIAGTFNL", "replicates, log10 nM": "0.18 1.07 0.55 0.80 1.27 1.70", "control signals": "0/18"}

Background: pairings of all heavy chain designs with three empty control strains gave a value in 1% of cases (median 2.08, 5th percentile 0.84). Values in that range, when seen in few replicates, are hard to tell from nonspecific mating. The control count says in how many pairings with the empty strains this scFv gave a signal, with their mean in brackets. The authors' rule: three or more of the six replicates give a measured affinity, fewer mean a poor binder.